{"source": "patent US10869938B2", "about": "“Magnetic resonance imaging” (1C TARGETS AS, priority 2007, dated 2020)", "experiment": "Water solubility comparison", "type": "physicochemical"}
{"substance": "manganese (II) chelate of N-pyridoxyl, N′-(pyridoxyl-5-phosphate)-ethylenediamine-N—N′-diacetic acid [MnDPMP]", "values": [{"measurement": "water solubility (comparison)", "value": "higher water solubility than MnPLED"}]}
